Results reported in US11111233B2, “Amino pyrimidine compound for inhibiting protein tyrosine kinase activity” (Shenzhen TargetRx, Inc., priority 2016, dated 2021).

Key:
[1] = target: EGFR [L858R/T790M] (Homo sapiens (Human), UniProt P00533, L858R/T790M); test: Kinase inhibition assay (HTRF), EGFR [L858R/T790M]; assay type: biochemical; conditions: HTRF Kinase TK kit, 10 min pre-incubation, 20 min reaction
[2] = target: WT EGFR (Homo sapiens (Human), UniProt P00533); test: Kinase inhibition assay (HTRF), WT EGFR; assay type: biochemical; conditions: HTRF Kinase TK kit, 10 min pre-incubation, 20 min reaction

N-(2-(4-ethoxypiperidin)-1-yl)-5-((4-(4-fluoro-1-isopropyl-2-methyl-1H-benzo[d]imidazole-6-yl)pyrimidin-2-yl)amino)-4-methoxyphenyl)acrylamide [Example 14]
IC50 [1]: 1 to 50 nM | IC50 [2]: > 100 nM
